Laboratory results reported in ChEMBL document CHEMBL3112556, “Novel GlyT1 inhibitor chemotypes by scaffold hopping. Part 2: development of a [3.3.0]-based series and other piperidine bioisosteres” (Bioorg Med Chem Lett, 2014).

Target: T1, Sodium- and chloride-dependent glycine transporter 1 (Homo sapiens, UniProt P48067)
T1 sequence (P48067 whole entry): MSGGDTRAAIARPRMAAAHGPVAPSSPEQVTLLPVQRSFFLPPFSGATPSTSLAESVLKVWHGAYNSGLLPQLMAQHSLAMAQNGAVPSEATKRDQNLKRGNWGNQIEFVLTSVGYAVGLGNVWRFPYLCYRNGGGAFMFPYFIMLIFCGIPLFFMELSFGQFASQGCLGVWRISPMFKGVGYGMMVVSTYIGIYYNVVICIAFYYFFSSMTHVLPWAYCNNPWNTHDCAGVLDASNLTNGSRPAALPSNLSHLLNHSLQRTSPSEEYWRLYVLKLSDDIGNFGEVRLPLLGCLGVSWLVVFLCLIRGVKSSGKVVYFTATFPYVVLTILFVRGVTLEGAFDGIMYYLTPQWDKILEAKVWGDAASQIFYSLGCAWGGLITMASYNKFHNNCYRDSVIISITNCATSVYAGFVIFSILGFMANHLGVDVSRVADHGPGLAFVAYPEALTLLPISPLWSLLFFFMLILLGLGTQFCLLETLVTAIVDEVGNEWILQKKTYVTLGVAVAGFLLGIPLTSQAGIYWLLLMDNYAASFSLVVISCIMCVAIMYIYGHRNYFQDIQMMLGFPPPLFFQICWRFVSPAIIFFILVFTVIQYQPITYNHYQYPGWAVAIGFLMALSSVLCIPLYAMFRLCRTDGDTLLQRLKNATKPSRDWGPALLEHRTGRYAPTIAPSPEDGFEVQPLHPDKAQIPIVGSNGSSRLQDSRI
Assay: Inhibition of GlyT1 (unknown origin) assessed as [14C]-glycine transport

Compared with `Cn1cnc(S(=O)(=O)N2C[C@H]3CC[C@@H](NC(=O)c4ccc(Cl)cc4Cl)[C@H]3C2)c1`, `Cn1cnc(S(=O)(=O)N2C[C@@H]3CC[C@H](NC(=O)c4ccc(Cl)cc4Cl)[C@@H]3C2)c1` is higher in IC50: 433 nM for the first, greater than 10000 nM for the second.

Going from `Cn1cnc(S(=O)(=O)N2CC([C@@H](NC(=O)c3ccc(Cl)cc3Cl)c3ccccn3)C2)c1` to `Cn1cnc(S(=O)(=O)N2CC([C@H](NC(=O)c3ccc(Cl)cc3Cl)c3ccccn3)C2)c1`, the IC50 falls from 900 nM to 39 nM (23-fold). The second is the more potent here.
